The text below walks through data of patent US20230348462A1, “IMIDAZO[4,5-C]QUINOLINE COMPOUNDS AND THEIR USE AS ATM KINASE INHIBITORS” (Deutsches Krebsforschungszentrum, priority 2020, published 2023).

SMILES strings stand for the structures.

The test relates to Panc-1 human pancreatic ductal carcinoma cells. As to the kind of experiment: Panc1 cell assay (XTT cell viability with Etoposide). Conditions: 4 h pre-treatment, then 300 nM Etoposide, 46 h. It is filed as cell-based. An excerpt:
A selection of compounds was screened in a cellular assay system in two different cancer cell lines. Therefore, the cells were challenged with a generally non-cytotoxic concentration of Etoposid to induce DNA double strand breaks and the activation of the ATM pathway. The cells were further treated with different concentrations of the final compounds and viability of the cells was quantified using a standard XTT cell viability protocol. The principle of this assay lies in the fact that only alive and thus metabolically active cells are able to catalyze the reduction of XTT ((2,3-bis-(2-methoxy-4-nitro-5-sulfophenyl)-2H-tetrazolium-5-carboxanilide) by NADH from mitochondria, into formazan. The formazan product can be then detected using an absorbance-based microplate reader. The absorbance intensity measured in each well correlates to cell viability.
In brief, kras^G12D; mycOE; p53^−/− murine pancreatic cancer cells (KMP53) and Panc-1 human pancreatic ductal carcinoma cells were seeded in 96-well plates and left to attach overnight. […] For the determination of cell viability, absorbance at 450 nm was measured for each well. Absorbance values were then normalized to DMSO control and expressed as percentages of viability. Using software GraphPad Prism, the values were fitted in a nonlinear response curve and the IC50 values were calculated.
(In general: Tetrazolium dyes change colour on reduction, which living cells bring about.)

Turning to `CN(C)CCCOc1ccc(-c2ccc3ncc4c(c3c2)n(C2CCOCC2)c(=O)n4C)cn1` [AZD0156, reference compound], the IC50 – broadly, the concentration that gives 50% inhibition – turned out to be 305 nM.
